Measurements taken from ChEMBL document CHEMBL3638554 (2015).

Sequences of proteins named here, by UniProt entry; tags and fusion partners are left off. A change or cut given only in a name is not applied to a line headed by its entry.
UniProt Q99558: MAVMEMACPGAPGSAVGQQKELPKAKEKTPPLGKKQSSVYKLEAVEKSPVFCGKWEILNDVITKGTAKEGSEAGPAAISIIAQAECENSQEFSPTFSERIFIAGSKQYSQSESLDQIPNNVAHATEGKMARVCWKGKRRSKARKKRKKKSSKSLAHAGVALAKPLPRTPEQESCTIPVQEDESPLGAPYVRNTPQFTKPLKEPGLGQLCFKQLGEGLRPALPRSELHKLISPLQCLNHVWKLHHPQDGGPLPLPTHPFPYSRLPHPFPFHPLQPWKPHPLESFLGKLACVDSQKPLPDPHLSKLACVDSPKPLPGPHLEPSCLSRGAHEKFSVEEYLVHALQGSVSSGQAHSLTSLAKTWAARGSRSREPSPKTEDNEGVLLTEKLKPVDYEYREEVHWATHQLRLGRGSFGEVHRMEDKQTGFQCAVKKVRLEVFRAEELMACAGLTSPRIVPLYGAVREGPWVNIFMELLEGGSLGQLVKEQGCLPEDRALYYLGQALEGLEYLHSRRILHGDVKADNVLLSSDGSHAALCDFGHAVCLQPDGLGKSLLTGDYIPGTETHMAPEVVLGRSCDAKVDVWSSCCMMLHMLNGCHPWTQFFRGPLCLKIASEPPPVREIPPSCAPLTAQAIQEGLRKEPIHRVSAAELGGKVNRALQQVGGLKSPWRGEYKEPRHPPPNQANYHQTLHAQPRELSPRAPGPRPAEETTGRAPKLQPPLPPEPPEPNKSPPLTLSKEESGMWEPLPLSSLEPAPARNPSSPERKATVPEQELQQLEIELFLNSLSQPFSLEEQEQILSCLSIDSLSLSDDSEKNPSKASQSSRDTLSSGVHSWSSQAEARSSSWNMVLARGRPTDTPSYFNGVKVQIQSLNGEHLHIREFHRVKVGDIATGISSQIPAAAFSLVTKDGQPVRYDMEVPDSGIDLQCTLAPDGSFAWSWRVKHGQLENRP

Biological target: Mitogen-activated protein kinase kinase kinase 14 (Homo sapiens, UniProt Q99558)
Assay: Inhibition Assay: The ability of the nuclear factor-kappa B (NF-kB)-inducing kinase (NIK) to catalyze the hydrolysis of adenosine-5'-triphosphate (ATP) was monitored using the Transcreener ADP (adenosine-5'-diphosphate) assay (BellBrook Labs). Purified NIK (0.2-1 nM) derived from a baculovirus-infected insect cell expression system was incubated with test compounds for 1-3.5 hours in 50 mM 2-[4-(2-hydroxyethyl)piperazin-1-yl]ethanesulfonic acid buffer (pH 7.2) containing 10 mM MgCl2, 2 mM dithiothreitol, 10 uM ATP, 0.01% Triton X-100, 0.1% gamma-globulins from bovine blood, 1% dimethylsulfoxide (DMSO), 12 ug/mL ADP antibody and 4 nM ADP-AlexaFluor.RTM. […] Reactions were quenched by the addition of 20 mM 2,2',2'',2'''-(ethane-1,2-diyldinitrilo)tetraacetic acid and 0.01% Brij 35. The tracer bound to the antibody was displaced by the ADP generated during the NIK reaction, which causes a decrease in fluorescence polarization that was measured by laser excitation.

| Structure (SMILES) | Ki [µM] |
| --- | --- |
| CC(C)(O)C#Cc1ccc2c(c1)-c1nc(C(N)=O)c(C#CC(C)(C)O)n1CCO2 | 0.289 |
| CNC(=O)c1c(C(N)=O)nc2n1CCOc1ccc(C#CC(C)(O)COC)cc1-2 (configuration not stated) | 0.007 |
